Some tests of the compounds listed are not included; inactive here does not mean inactive elsewhere.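 All cell lines were grown in 96-well plates and treated with compound for 48 hours. TGI marks complete inhibition of growth.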
Key:
Experiment in all cases: NCI anticancer screen, dose series, 48 h
[1] = test system: SK-MEL-5 melanoma
[2] = test system: SK-MEL-28 melanoma
[3] = test system: NCI-H23 lung
[4] = test system: LOX IMVI melanoma
[5] = test system: HCC-2998 colon
[6] = test system: NCI-H522 lung
[7] = test system: M14 melanoma
[8] = test system: CAKI-1 renal
[9] = test system: MDA-N
[10] = test system: MOLT-4 leukemia
[11] = test system: HL-60(TB) leukemia
[12] = test system: MALME-3M melanoma
[13] = test system: K-562 leukemia
[14] = test system: RXF 393 renal
[15] = test system: SNB-75 CNS
[16] = test system: UACC-257 melanoma
[17] = test system: NCI/ADR-RES ovarian
[18] = test system: HCT-15 colon
[19] = test system: OVCAR-5 ovarian
[20] = test system: IGROV1 ovarian
[21] = test system: DU-145 prostate
[22] = test system: ACHN renal
[23] = test system: RPMI-8226 leukemia
[24] = test system: TK-10 renal
[25] = test system: SN12C renal
[26] = test system: MCF7 breast
[27] = test system: U251 CNS
[28] = test system: EKVX NSCLC
[29] = test system: SK-OV-3 ovarian
[30] = test system: KM12 colon
[31] = test system: SNB-19 CNS
[32] = test system: COLO 205 colon
[33] = test system: 786-0 renal
[34] = test system: SF-539 CNS
[35] = test system: HCT-116 colon
[36] = test system: SW-620 colon
[37] = test system: NCI-H226 lung
[38] = test system: HT29 colon
[39] = test system: SF-268 CNS
[40] = test system: SR leukemia
[41] = test system: PC-3 prostate
[42] = test system: MDA-MB-231 breast
[43] = test system: SF-295 CNS
[44] = test system: CCRF-CEM leukemia
[45] = test system: A549 NSCLC
[46] = test system: T-47D breast
[47] = test system: OVCAR-3 ovarian
[48] = test system: OVCAR-8 ovarian
[49] = test system: UO-31 renal
[50] = test system: HOP-62 NSCLC
[51] = test system: UACC-62 melanoma

Measured: TGI

CN1CCC(OC(=O)C2(O)c3ccccc3Oc3ccccc32)CC1
> 100 µM: all assays above

— PubChem BioAssay (NCI)
